Source: patent EP4837910A1, “ISOXAZOLINE COMPOUND AND PREPARATION METHOD THEREFOR, HERBICIDAL COMPOSITION, AND USE” (dated 2026)

Legend:
[1] = test system: Monocotyledonous and dicotyledonous weed; test: Post-emergence test on weeds (greenhouse, spray tower); conditions: after 3 weeks of cultivation in a greenhouse, fresh weight control rate
[2] = test system: Monocotyledonous and dicotyledonous weed; test: Pre-emergence test on weeds (greenhouse, sprayed immediately after sowing); conditions: fresh weight control rate; for activity level of plant damage (growth control rate), Triticum aestivum: crop Triticum aestivum; for activity level of plant damage (growth control rate), Zea mays: crop Zea mays; for activity level of plant damage (growth control rate), Digitaria sanguinalis / activity level of plant damage (growth control rate), Lolium multiflorum / activity level of plant damage (growth control rate), Setaria viridis / activity level of plant damage (growth control rate), Descurainia sophia: after 4 weeks in greenhouse
[3] = sprayed immediately after sowing, 240 g a.i./ha, observed after 4 weeks in greenhouse
[4] = Lolium multiflorum, Dosage 240 g a.i./ha

`C=C(C)[C@]1(C(=O)N[C@@H](C)C(=O)NOCC(=O)O)CC(c2cc(F)cc(F)c2)=NO1` was tested. Which “Digitaria sanguinalis, activity level of plant damage (growth control rate)” value (“Digitaria sanguinalis, activity level” for short) ([1]; Dosage 60 g a.i./ha) did it give?
Its value is 8 (Level 8: growth control rate greater than or equal to 90% and less than 100%).

What about the “Echinochloa crus-galli, activity level of plant damage (growth control rate)” value (from here on “Echinochloa crus-galli, activity level”) ([1]; Dosage 60 g a.i./ha) of the same compound?
The value was 8 (Level 8: growth control rate greater than or equal to 90% and less than 100%).

What about the “activity level (growth control rate), Digitaria sanguinalis” value [2, 3] of the same compound?
The value was 8 (Level 8: growth control rate greater than or equal to 90% and less than 100%).

What about the “activity level (growth control rate), Setaria viridis” value [2, 3] of the same compound?
Its value is 7 (Level 7: growth control rate greater than or equal to 80% and less than 90%).

Which results are given for `C#CC[C@H](NC(=O)[C@@]1(C(=C)C)CC(c2cc(Cl)cc(Cl)c2)=NO1)C(=O)NOCC`?
Amaranthus retroflexus, activity level of plant damage (growth control rate) ([1]; Dosage 60 g a.i./ha): 6 (Level 6: growth control rate greater than or equal to 70% and less than 80%); Digitaria sanguinalis, activity level of plant damage (growth control rate) ([1]; Dosage 60 g a.i./ha): 8 (Level 8: growth control rate greater than or equal to 90% and less than 100%); Echinochloa crus-galli, activity level of plant damage (growth control rate) ([1]; Dosage 60 g a.i./ha): 6 (Level 6: growth control rate greater than or equal to 70% and less than 80%); activity level (growth control rate), Digitaria sanguinalis [2, 3]: 9; activity level (growth control rate), Setaria viridis [2, 3]: 9; activity level of plant damage (growth control rate), Triticum aestivum [2, 3]: 0; activity level of plant damage (growth control rate), Zea mays [2, 3]: 0

Which “Avena fatua, activity level of plant damage (growth control rate)” value (shortened to “Avena fatua, activity level”) ([1]; Dosage 240 g a.i./ha) does the source give for `C=C[C@]1(C(=O)N[C@@H](C)C(=O)N(C)OC)CC(c2cc(Cl)cc(Br)c2)=NO1` here?
The value was 9.

What about the “activity level of plant damage (growth control rate), Digitaria sanguinalis” value ([2]; Dosage 240 g a.i./ha) of the same compound?
Its value is 9.

What about the “activity level of plant damage (growth control rate), Lolium multiflorum” value [2, 4] of the same compound?
Its value is 9.

What about the “activity level of plant damage (growth control rate), Setaria viridis” value (“activity level of plant damage … Setaria viridis” for short) ([2]; Dosage 240 g a.i./ha) of the same compound?
Its value is 9.

`CC(NC(=O)C1(C)CC(c2ccc(F)c(Cl)c2)=NO1)C(=O)N(C)C` (stereo not shown) was tested. Which “Amaranthus retroflexus, activity level of plant damage (growth control rate)” value ([1]; Dosage 60 g a.i./ha) did it give?
Its value is 0.

And the “Avena fatua, activity level” value ([1]; Dosage 60 g a.i./ha)?
Its value is 0.

What about the “Digitaria sanguinalis, activity level” value ([1]; Dosage 60 g a.i./ha) of the same compound?
The value was 0.

And the “Echinochloa crus-galli, activity level” value ([1]; Dosage 60 g a.i./ha)?
The value was 0.

What about the “activity level (growth control rate), Digitaria sanguinalis” value [2, 3] of the same compound?
The value was 1 (Level 1: growth control rate less than 10%).

What about the “activity level (growth control rate), Lolium multiflorum” value ([2]; Lolium multiflorum, sprayed immediately after sowing, 240 g a.i./ha, observed after 4 weeks in greenhouse) of the same compound?
Its value is 2 (Level 2: growth control rate greater than or equal to 10% and less than 20%).

And the “activity level (growth control rate), Setaria viridis” value [2, 3]?
Its value is 1 (Level 1: growth control rate less than 10%).

What about the “activity level of plant damage (growth control rate), Triticum aestivum” value [2, 3] of the same compound?
Its value is 0.

And the “activity level of plant damage (growth control rate), Zea mays” value [2, 3]?
Its value is 0.

`C=C(C)[C@]1(C(=O)N[C@@H](C)C(=O)N2CCCO2)CC(c2cc(F)cc(F)c2)=NO1` was tested. Which “Digitaria sanguinalis, activity level” value ([1]; Dosage 60 g a.i./ha) did it give?
The value was 8 (Level 8: growth control rate greater than or equal to 90% and less than 100%).

And the “Echinochloa crus-galli, activity level” value ([1]; Dosage 60 g a.i./ha)?
The value was 6 (Level 6: growth control rate greater than or equal to 70% and less than 80%).

What about the “activity level of plant damage (growth control rate), Descurainia sophia” value (shortened to “activity level … Descurainia sophia”) ([2]; Dosage 240 g a.i./ha) of the same compound?
The value was 9.

What about the “activity level of plant damage (growth control rate), Digitaria sanguinalis” value ([2]; Dosage 240 g a.i./ha) of the same compound?
Its value is 9.

And the “activity level of plant damage (growth control rate), Lolium multiflorum” value [2, 4]?
Its value is 9.

And the “activity level of plant damage … Setaria viridis” value ([2]; Dosage 240 g a.i./ha)?
The value was 9.

Which results are given for `C=C(C)[C@]1(C(=O)N[C@@H](C)C(=O)NOCC(N)=O)CC(c2cc(F)cc(F)c2)=NO1`?
Amaranthus retroflexus, activity level of plant damage (growth control rate) ([1]; Dosage 60 g a.i./ha): 6 (Level 6: growth control rate greater than or equal to 70% and less than 80%); Digitaria sanguinalis, activity level of plant damage (growth control rate) ([1]; Dosage 60 g a.i./ha): 8 (Level 8: growth control rate greater than or equal to 90% and less than 100%); Echinochloa crus-galli, activity level of plant damage (growth control rate) ([1]; Dosage 60 g a.i./ha): 8 (Level 8: growth control rate greater than or equal to 90% and less than 100%); activity level (growth control rate), Digitaria sanguinalis [2, 3]: 9; activity level (growth control rate), Setaria viridis [2, 3]: 9

Which results are given for `C=C(C)[C@]1(C(=O)N[C@@H](C)C(=O)NOCC(=O)N2CCCO2)CC(c2cc(F)cc(F)c2)=NO1`?
Digitaria sanguinalis, activity level of plant damage (growth control rate) ([1]; Dosage 60 g a.i./ha): 9; Echinochloa crus-galli, activity level of plant damage (growth control rate) ([1]; Dosage 60 g a.i./ha): 8 (Level 8: growth control rate greater than or equal to 90% and less than 100%); activity level (growth control rate), Digitaria sanguinalis [2, 3]: 8 (Level 8: growth control rate greater than or equal to 90% and less than 100%); activity level (growth control rate), Setaria viridis [2, 3]: 9; activity level of plant damage (growth control rate), Zea mays [2, 3]: 0

Which results are given for `C=C(C)[C@]1(C(=O)N[C@H](C(=O)NOC)C2CC2)CC(c2cc(Cl)cc(Cl)c2)=NO1`?
Digitaria sanguinalis, activity level of plant damage (growth control rate) ([1]; Dosage 60 g a.i./ha): 8 (Level 8: growth control rate greater than or equal to 90% and less than 100%); Echinochloa crus-galli, activity level of plant damage (growth control rate) ([1]; Dosage 60 g a.i./ha): 6 (Level 6: growth control rate greater than or equal to 70% and less than 80%); activity level (growth control rate), Digitaria sanguinalis [2, 3]: 9; activity level (growth control rate), Setaria viridis [2, 3]: 9; activity level of plant damage (growth control rate), Zea mays [2, 3]: 0

For `C=C(C)[C@@]1(C(=O)N[C@@H](C)C(=O)N(C)OC)CC(c2cc(F)cc(Br)c2)=NO1`, which “Digitaria sanguinalis, activity level” value ([1]; Dosage 240 g a.i./ha) is on record?
Its value is 6 (Level 6: growth control rate greater than or equal to 70% and less than 80%).

What about the “Echinochloa crus-galli, activity level” value ([1]; Dosage 240 g a.i./ha) of the same compound?
The value was 5 (Level 5: growth control rate greater than or equal to 50% and less than 70%).

What about the “activity level … Descurainia sophia” value ([2]; Dosage 240 g a.i./ha) of the same compound?
Its value is 9.

And the “activity level of plant damage (growth control rate), Digitaria sanguinalis” value ([2]; Dosage 240 g a.i./ha)?
The value was 9.

And the “activity level of plant damage (growth control rate), Lolium multiflorum” value [2, 4]?
The value was 8 (Level 8: growth control rate greater than or equal to 90% and less than 100%).

What about the “activity level of plant damage … Setaria viridis” value ([2]; Dosage 240 g a.i./ha) of the same compound?
Its value is 9.

What does the source list for `C=C(C)[C@]1(C(=O)N[C@@H](C)C(=O)NOCCCCC)CC(c2cc(F)cc(F)c2)=NO1`?
Digitaria sanguinalis, activity level of plant damage (growth control rate) ([1]; Dosage 60 g a.i./ha): 9; Echinochloa crus-galli, activity level of plant damage (growth control rate) ([1]; Dosage 60 g a.i./ha): 9; activity level of plant damage (growth control rate), Descurainia sophia ([2]; Dosage 240 g a.i./ha): 5 (Level 5: growth control rate greater than or equal to 50% and less than 70%); activity level of plant damage (growth control rate), Digitaria sanguinalis ([2]; Dosage 240 g a.i./ha): 9; activity level of plant damage (growth control rate), Lolium multiflorum [2, 4]: 9; activity level of plant damage (growth control rate), Setaria viridis ([2]; Dosage 240 g a.i./ha): 9

How did the “Amaranthus retroflexus, activity level of plant damage (growth control rate)” value ([1]; Dosage 60 g a.i./ha) turn out when `C=C(C)[C@]1(C(=O)N[C@@H](C)C(=O)N2CCCO2)CC(c2cc(Cl)cc(Cl)c2)=NO1` was run?
Its value is 6 (Level 6: growth control rate greater than or equal to 70% and less than 80%).

And the “Digitaria sanguinalis, activity level” value ([1]; Dosage 60 g a.i./ha)?
Its value is 8 (Level 8: growth control rate greater than or equal to 90% and less than 100%).

And the “Echinochloa crus-galli, activity level” value ([1]; Dosage 60 g a.i./ha)?
The value was 8 (Level 8: growth control rate greater than or equal to 90% and less than 100%).

What about the “activity level of plant damage (growth control rate), Digitaria sanguinalis” value ([2]; Dosage 240 g a.i./ha) of the same compound?
The value was 9.

What about the “activity level of plant damage … Setaria viridis” value ([2]; Dosage 240 g a.i./ha) of the same compound?
The value was 9.

For `C=C(C)[C@]1(C(=O)N[C@@H](C)C(=O)NOCC2CC2)CC(c2cc(F)cc(Cl)c2)=NO1`, which “Digitaria sanguinalis, activity level” value ([1]; Dosage 60 g a.i./ha) is on record?
Its value is 8 (Level 8: growth control rate greater than or equal to 90% and less than 100%).

What about the “Echinochloa crus-galli, activity level” value ([1]; Dosage 60 g a.i./ha) of the same compound?
Its value is 8 (Level 8: growth control rate greater than or equal to 90% and less than 100%).

What about the “activity level (growth control rate), Digitaria sanguinalis” value [2, 3] of the same compound?
The value was 9.

What about the “activity level (growth control rate), Setaria viridis” value [2, 3] of the same compound?
The value was 9.

Which “Avena fatua, activity level” value ([1]; Dosage 240 g a.i./ha) does the source give for `C=C[C@]1(C(=O)N[C@@H](C)C(=O)N(C)OC)CC(c2cc(F)cc(F)c2)=NO1` here?
Its value is 9.

And the “activity level … Descurainia sophia” value ([2]; Dosage 250 g a.i./ha)?
The value was 9.

What about the “activity level of plant damage (growth control rate), Digitaria sanguinalis” value ([2]; Dosage 250 g a.i./ha) of the same compound?
Its value is 9.

And the “activity level of plant damage (growth control rate), Lolium multiflorum” value ([2]; Lolium multiflorum, Dosage 250 g a.i./ha)?
Its value is 9.

And the “activity level of plant damage … Setaria viridis” value ([2]; Dosage 250 g a.i./ha)?
The value was 9.

What does the source list for `C=C(C)[C@]1(C(=O)N[C@@H](C)C(=O)N(C)OCC)CC(c2cc(F)cc(F)c2)=NO1`?
Digitaria sanguinalis, activity level of plant damage (growth control rate) ([1]; Dosage 120 g a.i./ha): 9; activity level of plant damage (growth control rate), Digitaria sanguinalis ([2]; Dosage 240 g a.i./ha): 9; activity level of plant damage (growth control rate), Setaria viridis ([2]; Dosage 240 g a.i./ha): 9

With `C=C(C)[C@]1(C(=O)N[C@@H](C)C(=O)NOCC(=O)N(C)OC)CC(c2cc(F)cc(F)c2)=NO1` as the compound, how does the “Digitaria sanguinalis, activity level” value ([1]; Dosage 60 g a.i./ha) read?
Its value is 8 (Level 8: growth control rate greater than or equal to 90% and less than 100%).

What about the “Echinochloa crus-galli, activity level” value ([1]; Dosage 60 g a.i./ha) of the same compound?
The value was 8 (Level 8: growth control rate greater than or equal to 90% and less than 100%).

What about the “activity level (growth control rate), Digitaria sanguinalis” value [2, 3] of the same compound?
Its value is 9.

And the “activity level (growth control rate), Setaria viridis” value [2, 3]?
Its value is 9.

What does the source list for `C=C(C)[C@]1(C(=O)N[C@@H](C)C(=O)NOCc2ncc(Cl)cc2F)CC(c2cc(F)cc(F)c2)=NO1`?
Digitaria sanguinalis, activity level of plant damage (growth control rate) ([1]; Dosage 60 g a.i./ha): 8 (Level 8: growth control rate greater than or equal to 90% and less than 100%); Echinochloa crus-galli, activity level of plant damage (growth control rate) ([1]; Dosage 60 g a.i./ha): 8 (Level 8: growth control rate greater than or equal to 90% and less than 100%); activity level (growth control rate), Digitaria sanguinalis [2, 3]: 9; activity level (growth control rate), Setaria viridis [2, 3]: 9
